Test results reported in ChEMBL document CHEMBL5042513, “Discovery of 2H-chromone-4-one based sulfonamide derivatives as potent retinoic acid receptor-related orphan receptor γt inverse agonists” (Eur J Med Chem, 2022).

Tests used:
[1] = test system: Mus musculus; assay: Protection against imiquimod-induced psoriasis model of BALB/c mouse assessed as reduction on histopathological change at 10 to 20 mg/kg, po administered for 13 days by H and E staining based analysis; format: functional, organism-based; conditions: dose 10-20 mg/kg, time 13.0 day
[2] = test system: Mus musculus; assay: Protection against imiquimod-induced psoriasis model of BALB/c mouse assessed as reduction in total psoriasis area at 10 to 20 mg/kg, po administered for 13 days; format: functional, organism-based; conditions: dose 10-20 mg/kg, time 13.0 day

Cc1nc(N2CCOCC2)ccc1N(CC(C)C)S(=O)(=O)c1ccc2c(c1)C(=O)CC(C1CCOCC1)O2 (configuration not stated)
Activity [1]: Active | Activity [2]: Active

Active and inactive are the calls of the source. No cut-off for these calls is given here.
